# Measured values published in patent US20180325914A1, “INCREASING STORAGE OF VITAMIN A, VITAMIN D AND/OR LIPIDS” (Salk Institute for Biological Studies, priority 2014, published 2018).
# Tested on: primary HSCs
compound,measurement,value
"Cc1sc2c(c1C)C(c1ccc(Cl)cc1)=N[C@@H](CC(=O)OC(C)(C)C)c1nnc(C)n1-2 [JQ1, (S)-tert-butyl 2-(4-(4-chlorophenyl)-2,3,9-trimethyl-6H-thieno[3,2-f][1,2,4]triazolo[4,3-a][1,4]diazepin-6-yl)acetate]",1110003E01Rik log2(fold_change),0.49
same,1110067D22Rik log2(fold_change),−1.6197
same,1190002N15Rik log2(fold_change),2.603
same,1600014C10Rik log2(fold_change),0.6167
same,2310022B05Rik log2(fold_change),0.4879
same,3110003A17Rik log2(fold_change),−0.8881
same,4833442J19Rik log2(fold_change),−2.6935
same,4930583H14Rik log2(fold_change),−3.5597
same,6330406I15Rik log2(fold_change),−0.6004
same,9030617O03Rik log2(fold_change),−0.7896
same,9930013L23Rik log2(fold_change),−1.8225
same,A430110N23Rik log2(fold_change),−2.0761
same,AA467197 log2(fold_change),−4.4808
same,AI427809 log2(fold_change),−3.8454
same,AI597468 log2(fold_change),−0.7204
same,Aard log2(fold_change),3.152
same,Abat log2(fold_change),1.831
same,Acot11 log2(fold_change),−1.6812
same,Acpl2 log2(fold_change),−1.7436
same,Acta1 log2(fold_change),−3.5363
same,Actg2 log2(fold_change),−4.6695
same,Adam8 log2(fold_change),−1.8587
same,Adam12 log2(fold_change),−0.6779
same,Adam15 log2(fold_change),0.5692
same,Adamts5 log2(fold_change),2.155
same,Adamts12 log2(fold_change),−2.111
same,Adamtsl2 log2(fold_change),−3.4377
same,Adcy1 log2(fold_change),−2.5482
same,Adcy5 log2(fold_change),−2.5661
same,Adcy7 log2(fold_change),−2.1951
same,Adora2b log2(fold_change),−0.7993
same,Afap1l2 log2(fold_change),0.6954
same,Aga log2(fold_change),−0.681
same,Ahdc1 log2(fold_change),0.5362
same,Aif1l log2(fold_change),−2.2243
same,Ak3 log2(fold_change),−0.7666
same,Ak4 log2(fold_change),−3.0575
same,Akap5 log2(fold_change),−1.6481
same,Aldh1a1 log2(fold_change),2.982
same,Aldh1a2 log2(fold_change),−1.7827
same,Aldh1l1 log2(fold_change),−1.8083
same,Aldh1l2 log2(fold_change),−1.9695
same,Alox5ap log2(fold_change),−3.3781
same,Angpt4 log2(fold_change),−3.5318
same,Ankrd55 log2(fold_change),−1.8294
same,Anxa6 log2(fold_change),−0.6095
same,Aoc3 log2(fold_change),−2.7703
same,Apbb1ip log2(fold_change),−0.3793
same,Apbb1 log2(fold_change),−0.2271
same,Apln log2(fold_change),0.6313
same,Arhgap11a log2(fold_change),0.6696
same,Arhgef6 log2(fold_change),−2.5116
same,Arhgef10 log2(fold_change),−0.5271
same,Arhgef17 log2(fold_change),0.5644
same,Arhgef25 log2(fold_change),−0.3966
same,Arl5a log2(fold_change),−0.4698
same,Arsb log2(fold_change),−0.2842
same,Arxes2 log2(fold_change),1.545
same,Asf1b log2(fold_change),1.177
same,Ass1 log2(fold_change),−0.7372
same,Atoh8 log2(fold_change),1.079
same,Atp1a3 log2(fold_change),−2.7352
same,Atp8b2 log2(fold_change),−0.8035
same,Aurkb log2(fold_change),0.763
same,Avpr1a log2(fold_change),−1.7957
same,B3galnt1 log2(fold_change),−1.9475
same,B4galt2 log2(fold_change),−0.4322
same,BC018242 log2(fold_change),0.5904
same,BC031353 log2(fold_change),0.6117
same,BC046404 log2(fold_change),0.7414
same,Bag2 log2(fold_change),−1.5931
same,Bambi log2(fold_change),0.7735
same,Barx1 log2(fold_change),0.8268
same,Basp1 log2(fold_change),0.477
same,Bcat1 log2(fold_change),−3.7612
same,Bcmo1 log2(fold_change),0.9338
same,Bdnf log2(fold_change),−1.874
same,Bicc1 log2(fold_change),0.7762
same,Birc5 log2(fold_change),0.8496
same,Bnip3 log2(fold_change),−1.6903
same,Boc log2(fold_change),−0.5044
same,Bphl log2(fold_change),0.5126
same,Btg2 log2(fold_change),−0.6709
same,Bub1 log2(fold_change),0.8389
same,C1qtnf1 log2(fold_change),−0.6473
same,C1qtnf2 log2(fold_change),−3.7007
same,C1qtnf5 log2(fold_change),−3.0319
same,C1qtnf6 log2(fold_change),−0.6741
same,C330027C09Rik log2(fold_change),0.4526
same,Cacng7 log2(fold_change),−2.1628
same,Cadm4 log2(fold_change),0.6865
same,Casc4 log2(fold_change),0.8788
same,Casp12 log2(fold_change),−1.8685
same,Cav1 log2(fold_change),−0.748
same,Cbx5 log2(fold_change),0.4317
same,Ccbe1 log2(fold_change),−0.5091
same,Ccdc104 log2(fold_change),−0.5601
same,Ccdc109b log2(fold_change),−0.6411
same,Cck log2(fold_change),−6.933
same,Ccl12 log2(fold_change),−6.5143
same,Ccnb2 log2(fold_change),0.6449
same,Ccnd2 log2(fold_change),−0.5059
same,Ccnf log2(fold_change),0.7858
same,Ccng1 log2(fold_change),−0.4404
same,Cd248 log2(fold_change),1.021
same,Cd276 log2(fold_change),−1.8166
same,Cdc42bpa log2(fold_change),−0.8213
same,Cdc45 log2(fold_change),0.4758
same,Cdca3 log2(fold_change),0.7846
same,Cdca5 log2(fold_change),0.9051
same,Cdh3 log2(fold_change),−3.6022
same,Cdh6 log2(fold_change),−2.8188
same,Cdh11 log2(fold_change),−1.6934
same,Cdk1 log2(fold_change),0.6368
same,Cdkn2b log2(fold_change),−0.8634
same,Cdkn2c log2(fold_change),0.4351
same,Cdon log2(fold_change),0.8474
same,Celf2 log2(fold_change),−0.3778
same,Cend1 log2(fold_change),0.6977
same,Cenpe log2(fold_change),0.7813
same,Cenph log2(fold_change),0.7387
same,Cep55 log2(fold_change),0.863
same,Cercam log2(fold_change),−1.5652
same,Chaf1a log2(fold_change),0.7923
same,Chd3 log2(fold_change),−2.985
same,Chpf log2(fold_change),−0.2699
same,Chst11 log2(fold_change),−3.0832
same,Chst12 log2(fold_change),−0.5147
same,Chst14 log2(fold_change),−0.7675
same,Chsy3 log2(fold_change),−0.2788
same,Ckap2l log2(fold_change),0.4836
same,Ckap2 log2(fold_change),0.9355
same,Ckap4 log2(fold_change),−0.8382
same,Ckb log2(fold_change),0.5731
same,Cks1b log2(fold_change),0.6346
same,Clca1 log2(fold_change),0.964
same,Cnn1 log2(fold_change),−4.9341
same,Cnn2 log2(fold_change),−0.8993
same,Cnrip1 log2(fold_change),−0.3622
same,Col1a1 log2(fold_change),−1.6234
same,Col4a5 log2(fold_change),−0.457
same,Col5a1 log2(fold_change),−0.8039
same,Col5a2 log2(fold_change),−0.8766
same,Col6a1 log2(fold_change),−0.6543
same,Col6a2 log2(fold_change),−2.928
same,Col6a3 log2(fold_change),−3.296
same,Col7a1 log2(fold_change),−3.6642
same,Col8a1 log2(fold_change),−0.785
same,Col11a1 log2(fold_change),−3.7267
same,Col12a1 log2(fold_change),−2.2532
same,Col14a1 log2(fold_change),1.793
same,Col15a1 log2(fold_change),−5.116
same,Col16a1 log2(fold_change),−1.703
same,Colec11 log2(fold_change),0.6872
same,Copz2 log2(fold_change),−0.2374
same,Cpe log2(fold_change),−0.791
same,Cplx2 log2(fold_change),−2.4716
same,Cpt1c log2(fold_change),0.6903
same,Cpz log2(fold_change),−0.7891
same,Crispld2 log2(fold_change),−2.4734
same,Crlf1 log2(fold_change),−2.4669
same,Csdc2 log2(fold_change),−2.6599
same,Csrp1 log2(fold_change),−0.6997
same,Csrp2 log2(fold_change),−0.3485
same,Cthrc1 log2(fold_change),−5.0344
same,Ctnnbip1 log2(fold_change),0.48
same,Cul7 log2(fold_change),−0.3304
same,Cxx1c log2(fold_change),−0.3988
same,Cyb5r3 log2(fold_change),0.5722
same,Cygb log2(fold_change),−0.7185
same,Cyp1b1 log2(fold_change),0.4116
same,Cyp51 log2(fold_change),−0.6376
same,D2Ertd750e log2(fold_change),0.7447
same,D4Bwg0951e log2(fold_change),−0.2667
same,D430019H16Rik log2(fold_change),−2.685
same,Dact3 log2(fold_change),0.4719
same,Dag1 log2(fold_change),0.5373
same,Dcaf12l1 log2(fold_change),−0.7149
same,Dcbld2 log2(fold_change),0.5265
same,Dcxr log2(fold_change),0.5145
